{
  "sequences": {"note": "By UniProt entry, the sequences of proteins in these tests, tags left out.", "UniProt P33535, whole entry": "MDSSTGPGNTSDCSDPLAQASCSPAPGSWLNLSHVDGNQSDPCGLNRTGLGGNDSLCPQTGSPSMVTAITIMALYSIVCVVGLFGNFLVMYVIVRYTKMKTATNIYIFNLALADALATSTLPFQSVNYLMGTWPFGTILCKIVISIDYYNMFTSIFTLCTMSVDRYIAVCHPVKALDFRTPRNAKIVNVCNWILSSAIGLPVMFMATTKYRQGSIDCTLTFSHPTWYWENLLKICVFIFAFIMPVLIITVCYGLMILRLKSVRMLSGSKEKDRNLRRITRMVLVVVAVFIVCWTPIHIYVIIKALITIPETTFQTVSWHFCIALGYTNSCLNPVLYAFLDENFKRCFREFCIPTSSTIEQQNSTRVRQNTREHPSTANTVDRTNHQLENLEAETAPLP"},
  "source": "paper PMC5689474",
  "about": "(Amino acids, 2010)",
  "origin": "cited, not measured here",
  "key": {"hDOR (δ-receptor)": {"biological_target": "hDOR (δ-receptor) (Homo sapiens, UniProt P41143)", "settings": "net total bound/basal binding × 100 ± SEM; ref Lipkowski et al. (1999)"}, "hMOR (μ-receptor)": {"biological_target": "hMOR (μ-receptor) (Rattus norvegicus, UniProt P33535)", "settings": "net total bound/basal binding × 100 ± SEM; ref Lipkowski et al. (1999)"}},
  "data": [
    {"substance": "Tyr-D-Ala-Gly-Phe-NH-NH\\-Phe\\-Gly\\-D-Ala\\-Tyr [Bph]", "values": [
      {"measurement": "GTP binding Emax, hDOR", "setting": "hDOR (δ-receptor)", "result": "27 ± 3", "unit": "%"},
      {"measurement": "GTP binding Emax, hMOR", "setting": "hMOR (μ-receptor)", "result": "25 ± 4", "unit": "%"}
    ]}
  ]
}
